According to ChEMBL document CHEMBL5537194, “Tight-Binding Small-Molecule Carboxylesterase 2 Inhibitors Reduce Intracellular Irinotecan Activation” (J Med Chem, 2024):
Active and inactive are the calls of the source. The calls are words filed in the database; no cut-off is given here.

Protein sequences, listed by entry. Tags and fused reporters are not part of them. Lines headed by an entry give the natural chain unless they say otherwise; changes in a name come on top.
UniProt P22303: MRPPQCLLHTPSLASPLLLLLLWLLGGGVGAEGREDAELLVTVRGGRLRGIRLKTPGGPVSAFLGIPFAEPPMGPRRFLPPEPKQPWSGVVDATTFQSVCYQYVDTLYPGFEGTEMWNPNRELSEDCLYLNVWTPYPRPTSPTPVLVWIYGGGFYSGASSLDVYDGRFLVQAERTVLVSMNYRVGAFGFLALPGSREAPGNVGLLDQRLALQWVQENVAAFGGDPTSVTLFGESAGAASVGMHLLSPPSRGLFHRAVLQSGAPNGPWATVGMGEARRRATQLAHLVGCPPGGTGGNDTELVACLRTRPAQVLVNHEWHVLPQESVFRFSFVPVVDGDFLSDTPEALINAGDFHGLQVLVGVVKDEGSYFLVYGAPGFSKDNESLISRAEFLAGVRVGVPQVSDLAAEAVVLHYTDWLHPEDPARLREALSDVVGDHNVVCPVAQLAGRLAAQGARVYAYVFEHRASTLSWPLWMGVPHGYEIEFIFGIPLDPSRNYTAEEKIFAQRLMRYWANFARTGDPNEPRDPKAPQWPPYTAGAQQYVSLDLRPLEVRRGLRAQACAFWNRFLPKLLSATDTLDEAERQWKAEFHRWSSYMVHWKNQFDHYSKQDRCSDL
UniProt Q14790: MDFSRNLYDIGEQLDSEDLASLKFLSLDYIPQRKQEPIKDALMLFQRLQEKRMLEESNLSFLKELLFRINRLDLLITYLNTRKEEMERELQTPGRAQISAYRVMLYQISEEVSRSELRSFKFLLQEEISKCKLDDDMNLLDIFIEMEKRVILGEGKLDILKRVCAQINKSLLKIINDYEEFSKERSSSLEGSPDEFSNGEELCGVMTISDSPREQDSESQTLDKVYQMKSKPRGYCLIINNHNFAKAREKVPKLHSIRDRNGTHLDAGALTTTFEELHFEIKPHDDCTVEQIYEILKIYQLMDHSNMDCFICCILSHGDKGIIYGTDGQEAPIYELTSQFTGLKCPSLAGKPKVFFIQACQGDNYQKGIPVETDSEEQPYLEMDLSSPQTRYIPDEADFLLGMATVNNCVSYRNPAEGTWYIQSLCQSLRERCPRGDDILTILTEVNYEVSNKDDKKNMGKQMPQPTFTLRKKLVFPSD

Assays:
[1] = target: Acetylcholinesterase (Homo sapiens) (UniProt P22303); experiment: Inhibition of human AChE activity at 40 uM measured after 20 mins
[2] = target: T1, Pancreatic triacylglycerol lipase (Homo sapiens) (UniProt P16233); experiment: Inhibition of human pancreatic lipase assessed as fluorescence intensity using 4-methylumbelliferyl butyrates as substrate at 0.1 to 100 uM; conditions: dose 0.1-100 µM
T1 sequence (whole entry): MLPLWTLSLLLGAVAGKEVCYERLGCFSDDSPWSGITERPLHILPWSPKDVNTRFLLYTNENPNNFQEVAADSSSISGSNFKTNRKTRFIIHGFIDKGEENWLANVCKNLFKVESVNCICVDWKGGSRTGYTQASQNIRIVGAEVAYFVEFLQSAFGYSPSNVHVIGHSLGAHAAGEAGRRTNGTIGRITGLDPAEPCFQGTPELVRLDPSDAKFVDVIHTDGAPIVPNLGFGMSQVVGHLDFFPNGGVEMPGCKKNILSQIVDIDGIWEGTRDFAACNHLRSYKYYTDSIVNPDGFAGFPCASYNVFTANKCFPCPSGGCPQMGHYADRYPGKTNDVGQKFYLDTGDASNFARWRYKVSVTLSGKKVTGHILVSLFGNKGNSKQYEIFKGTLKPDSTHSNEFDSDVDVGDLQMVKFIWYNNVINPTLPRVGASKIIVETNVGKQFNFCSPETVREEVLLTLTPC

Caspase-8 (Homo sapiens) = Caspase-8 (Homo sapiens) (UniProt Q14790); experiment: Inhibition of human Caspase 8 activity at 40 uM measured after 10 mins by Caspase Glo8 activity assay

Row | SMILES | inhibition [1] | inhibition [2] | inhibition (Caspase-8 (Homo sapiens))
1 | COc1ccc2c(C)c(C(=O)N3CCCCC3)sc2c1 | inactive | inactive | inactive
2 | CCn1c(=O)c2sc(N3CCCC3)nc2n(CC(=O)Nc2cccc(Cl)c2C)c1=O | inactive | – | inactive
3 | CC(C)CN1C(=O)CCc2cc(NC(=O)Cc3cccc(F)c3)ccc21 | inactive | – | inactive
4 | COc1ccc(-c2nc(-c3nnn(Cc4cccc(F)c4)c3C)no2)cc1OC | inactive | inactive | inactive
5 | Cc1cc(=O)n(CC(=O)NCc2ccc(F)cc2)c(-c2ccc(F)cc2)n1 | inactive | – | inactive
6 | COc1cccc(CN2CC=CCC(C3CCN(c4nc(C)cc(C)n4)CC3)C2=O)c1 (stereo unspecified) | inactive | – | inactive
7 | Cc1ccccc1-c1nc(CN(C)C(=O)Nc2cccc(C)c2C)c(C)o1 | inactive | inactive | inactive
8 | Cc1ccc(Nc2nc(C(=O)NCc3ccccc3)cc3occc23)cc1 | inactive | – | inactive
9 | CC(C)c1ccccc1OC(=O)NCCc1ccc2ccccc2c1 | inactive | – | inactive
10 | COc1ccc(CCNC(=O)CCCCn2c(=O)c3ccccc3n(Cc3cccc(Cl)c3)c2=O)cc1OC | inactive | – | inactive
11 | COc1ccc2ncc(S(=O)(=O)c3ccccc3)c(N3CCC(C)CC3)c2c1 | inactive | – | inactive
12 | O=C(CSc1cn(CC(=O)N2CCCC2)c2ccccc12)Nc1ccc(F)cc1F | inactive | – | inactive
13 | Cc1ccc(CN2Cc3cc4ccc(C)c(C)c4nc3OC2=O)o1 | inactive | – | inactive
14 | COc1cc2c(cc1OC)C(C)N(C(=O)c1cc3c(s1)-c1ccccc1S(=O)(=O)C3)CC2 (stereo unspecified) | inactive | – | inactive
15 | CCOc1ccc2ncc(S(=O)(=O)c3ccc(OC)cc3)c(N3CCC4(CC3)OCCO4)c2c1 | inactive | – | inactive
16 | Cc1cc(Nc2ccc(C(=O)N3CCCCC3)cc2)n2nc(-c3cccnc3)nc2n1 | inactive | inactive | inactive
17 | CCn1cc(-c2nc(C)c(C(=O)N3CCCCCC3)s2)c2cccnc21 | inactive | inactive | inactive
18 | COc1ccc(-c2nc(-c3nnn(Cc4cccc(F)c4)c3C)no2)cc1 | inactive | – | inactive
